The target in this assay is Recombinant marmoset IL-1β (marmoset, UniProt U3E018 117-268). Description: cell-based or functional assay.

B1: bbmAb1 (bispecific antibody, human IgG1, kappa, lambda, L234A L235A)
heavy 1: not shown
light 1: not shown
heavy 2: not shown
light 2: EIVLTQSPDFQSVTPKEKVTITCRASQSIGSSLHWYQQKPDQSPKLLIKYASQSFSGVPSRFSGSGSGTDFTLTINSLEAEDAAAYYCHQSSSLPFTFGPGTKVDIKRTVAAPSVFIFPPSDEQLKSGTASVVCLLNNFYPREAKVQWKVDNALQSGNSQESVTEQDSKDSTYSLSSTLTLSKADYEKHKVYACEVTHQGLSSPVTKSFNRGEC
In the case of B1, the “IL-6 prod. in dermal fibroblasts stimulated with recombinant marmoset IL-1β (18 pM), IC50, Exp. A (marmoset dermal fibroblasts by the column head)” value was 0.174 nM; the “IL-6 prod. in dermal fibroblasts stimulated with recombinant marmoset IL-1β (18 pM), IC50, Exp. B (marmoset or human fibroblasts: column heads unclear)” value amounted to 0.364 nM; the “IL-6 prod. in dermal fibroblasts stimulated with recombinant marmoset IL-1β (18 pM), IC50, Exp. C (marmoset or human fibroblasts: column heads unclear)” value was 0.22 nM.

Values taken from US20200308309A1 (Novartis, published 2020).
